Measurements from patent publication US20250186493A1, “ARTIFICIAL ANTIGEN-SPECIFIC IMMUNOREGULATORY T (AIRT) CELLS” (Seattle Children's Hospital (dba Seattle Children's …, priority 2020, published 2025).

Columns and labels:
[1] = tested on: IL-2 CISC (FRB-IL2RB and FKBP-IL2RG); experiment: Enrichment/expansion of split-CISC or split-DISC edited human CD4+ T cells with Rapalog, Rapamycin or IL-2; assay type: cell-based
[2] = tested on: human CD4+ Teff; experiment: In vitro suppression assay with human Teff (CTV dilution, intracellular cytokines); assay type: cell-based; conditions: T1D2 EngTregs

IL-2: recombinant human IL-2 used as comparator culture cytokine
FOXP3/T1D4 double positive cells at day 7 ([1]; 100 nM AP21967 or 50 ng/mL IL-2, #3240/#3243): 1.47%
GFP/mCherry double positive cells ([1]; 100 nM rapalog, over 8 days, from 1.4%, TRAC split IL-2 CISC): no expansion was observed
cell viability ([1]; 7 days in 100 nM AP21967 or 50 ng/mL IL-2): 95%
GFP/mCherry double positive cells ([1]; 7 days of enrichment, donor R003657, #3207/#3208): no enrichment
FOXP3/T1D4 double-positive cells ([1]; 7 days of treatment, cells recovered in 2.5% FBS, #3240/#3243): 1.97%
FOXP3/T1D4-positive cells ([1]; after 8 days of treatment, from 0.65%, #3240/#3243): 1.1%
effect of exogenous IL-2 on EngTreg suppression of polyclonal islet-specific Teff proliferation [2]: no significant effect
